Two compounds from US20090209570A1 (priority 2001, published 2009) can be followed below.

Amino acid sequences for entries named in this document (tags omitted).
UniProt P33535, whole entry: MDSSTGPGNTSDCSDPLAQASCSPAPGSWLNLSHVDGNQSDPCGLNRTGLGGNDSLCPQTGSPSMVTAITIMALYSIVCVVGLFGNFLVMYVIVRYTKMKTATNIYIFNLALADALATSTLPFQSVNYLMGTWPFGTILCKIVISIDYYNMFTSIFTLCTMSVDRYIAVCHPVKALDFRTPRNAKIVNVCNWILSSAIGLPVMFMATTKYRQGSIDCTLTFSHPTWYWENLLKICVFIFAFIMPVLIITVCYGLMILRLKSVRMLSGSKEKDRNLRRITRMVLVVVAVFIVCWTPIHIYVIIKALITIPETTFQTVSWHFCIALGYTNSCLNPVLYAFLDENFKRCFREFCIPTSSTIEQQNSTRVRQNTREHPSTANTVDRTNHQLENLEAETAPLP

For this assay, the target named is T1, μ-opioid receptors (Rattus norvegicus, UniProt P33535).
T1 construct: from tissue; host or cells: rat brain homogenate
Kind of assay: Opioid receptor binding studies with [3H]DAMGO on rat's brain homogenisates.

The term Ki denotes a measure of affinity in units of concentration, obtained from inhibition or displacement. A lower Ki goes with tighter binding. On to `CO[C@@]12CC[C@H](N[C@@H](C)C(=O)O)[C@@H]3Oc4c(O)ccc5c4[C@@]31CCN(C)C2C5` [Compound 7, (2′S)-2′-(4,5α-epoxy-3-hydroxy-14β-methoxy-17-methylmorphinan-6α-ylamino)-propionic acid bis(tetrafluoroborate)], for which the affinity, expressed as Ki, was 0.77 nM. The compound `CO[C@@]12CC[C@@H](N[C@@H](C)C(=O)O)[C@@H]3Oc4c(O)ccc5c4[C@@]31CCN(C)C2C5` [Compound 8, (2′S)-2′-(4,5α-epoxy-3-hydroxy-14β-methoxy-17-methylmorphinan-6β-ylamino)-propionic acid bis(tetrafluoroborate)] came in with an inhibition constant Ki of 1.9 nM.
